Reference: US20090005270A1 (priority 2005, published 2009)

Assay: Propofol detection in exhaled breath of volunteers (Hazmatcad SAW sensor, SPME GC-MS)

## CC(C)c1cccc(C(C)C)c1O
Calculated effect site concentration 0.3 μg/mL (FIG. 8)
  GC-MS propofol peak abundance in exhaled breath: 1,200,000 counts
Calculated effect site concentration 0.5 μg/mL (FIG. 6)
  GC-MS propofol peak abundance in exhaled breath: 80,000 counts
Calculated effect site concentration 1.0 μg/mL (FIG. 7)
  GC-MS propofol peak abundance in exhaled breath: 2,200,000 counts
Single subject, semiquantitative
  exhaled breath concentration (SPME and Hazmatcad) versus measured blood propofol concentration: did correlate
volunteers, low sedative doses
  detection in exhaled breath samples using the Hazmatcad: detected in all exhaled breath samples
